Tests used:
PI3Kα = PI3Kα (Homo sapiens, UniProt P42336); experiment: PI3Kα enzyme activity inhibition IC50 evaluation assay (ADP-Glo Kinase Assay); settings: read-out: PI3K-α IC50, ATP 25 μM, PIP2 50 μg/mL, 1 hour room temperature
PI3Kδ = PI3Kδ (Homo sapiens, UniProt O00329); experiment: PI3Kδ enzyme activity inhibition IC50 evaluation assay (ADP-Glo Kinase Assay); settings: read-out: PI3K-δ IC50, ATP 25 μM, PIP2 50 μg/mL, 1 hour room temperature
HDAC6 = HDAC6 (Homo sapiens, UniProt Q9UBN7); experiment: HDAC6 enzyme activity inhibition IC50 evaluation experiment; settings: read-out: HDAC6 IC50; HDAC6 5 nM, acetylated peptide 11 μM, trypsin, fluorescence
PI3Kβ = PI3Kβ (Homo sapiens, UniProt P42338); experiment: PI3Kβ enzyme activity inhibition IC50 evaluation assay (ADP-Glo Kinase Assay); settings: read-out: PI3K-β IC50, ATP 25 μM, PIP2 50 μg/mL, 1 hour room temperature
PI3Kγ = PI3Kγ (Homo sapiens, UniProt P48736); experiment: PI3Kγ enzyme activity inhibition IC50 evaluation assay (ADP-Glo Kinase Assay); settings: read-out: PI3K-γ IC50, ATP 25 μM, PIP2 50 μg/mL, 1 hour room temperature
HDAC1 = HDAC1 (Homo sapiens, UniProt Q13547); experiment: HDAC1 enzyme activity inhibition IC50 evaluation experiment; settings: read-out: HDAC1 IC50; HDAC1 10 nM, acetylated peptide 8 μM, trypsin, fluorescence
Experimental: (§1) Effect Example 2 HDAC1, HDAC2, HDAC3, HDAC6 enzyme activity inhibition IC50 evaluation experiment
(§2) Buffer solution (50 mM Tris 7.5, 0.01% Tween-20, 50 mM NaCl) was prepared according to the kit instructions, and the enzyme solution and substrate solution (acetylated peptide with the addition of trypsin) were prepared using the buffer solution. The test compound samples were dissolved with DMSO and added to the screening system at a certain starting concentration such as 10 μM, 3-fold dilution, while setting up a DMSO control and no-enzyme control. The enzyme reaction system includes: buffer, enzyme [final concentration: HDAC1=10 nM, HDAC2=4 nM, HDAC3=7 nM, HDAC6=5 nM], substrate (acetylated peptide) [final concentration: Peptide(HDAC1)=8 μM, Peptide(HDAC2)=10 μM, Peptide(HDAC3)=5 μM, Peptide(HDAC6)=11 μM], trypsin [final concentration: Trypsin(HDAC1,2,3)=0.05 μM, Trypsin(HDAC6)=0.1 μM], etc. The enzymes and compounds were reacted at room temperature for 15 min. After adding the substrate and Trypsin, centrifugation was performed for 1 min, and the fluorescence signal data (excitation wavelength 355 nM/emission wavelength 460 nm) was read continuously for 60 min using Envision, and the linear reaction segment was selected to obtain the slope and thus calculate the inhibition rate at that concentration. […]

Amino acid sequences for entries named in this document (tags omitted). A change or cut given only in a name is not applied to a line headed by its entry. Residues count along the entry.
UniProt P42336, whole entry: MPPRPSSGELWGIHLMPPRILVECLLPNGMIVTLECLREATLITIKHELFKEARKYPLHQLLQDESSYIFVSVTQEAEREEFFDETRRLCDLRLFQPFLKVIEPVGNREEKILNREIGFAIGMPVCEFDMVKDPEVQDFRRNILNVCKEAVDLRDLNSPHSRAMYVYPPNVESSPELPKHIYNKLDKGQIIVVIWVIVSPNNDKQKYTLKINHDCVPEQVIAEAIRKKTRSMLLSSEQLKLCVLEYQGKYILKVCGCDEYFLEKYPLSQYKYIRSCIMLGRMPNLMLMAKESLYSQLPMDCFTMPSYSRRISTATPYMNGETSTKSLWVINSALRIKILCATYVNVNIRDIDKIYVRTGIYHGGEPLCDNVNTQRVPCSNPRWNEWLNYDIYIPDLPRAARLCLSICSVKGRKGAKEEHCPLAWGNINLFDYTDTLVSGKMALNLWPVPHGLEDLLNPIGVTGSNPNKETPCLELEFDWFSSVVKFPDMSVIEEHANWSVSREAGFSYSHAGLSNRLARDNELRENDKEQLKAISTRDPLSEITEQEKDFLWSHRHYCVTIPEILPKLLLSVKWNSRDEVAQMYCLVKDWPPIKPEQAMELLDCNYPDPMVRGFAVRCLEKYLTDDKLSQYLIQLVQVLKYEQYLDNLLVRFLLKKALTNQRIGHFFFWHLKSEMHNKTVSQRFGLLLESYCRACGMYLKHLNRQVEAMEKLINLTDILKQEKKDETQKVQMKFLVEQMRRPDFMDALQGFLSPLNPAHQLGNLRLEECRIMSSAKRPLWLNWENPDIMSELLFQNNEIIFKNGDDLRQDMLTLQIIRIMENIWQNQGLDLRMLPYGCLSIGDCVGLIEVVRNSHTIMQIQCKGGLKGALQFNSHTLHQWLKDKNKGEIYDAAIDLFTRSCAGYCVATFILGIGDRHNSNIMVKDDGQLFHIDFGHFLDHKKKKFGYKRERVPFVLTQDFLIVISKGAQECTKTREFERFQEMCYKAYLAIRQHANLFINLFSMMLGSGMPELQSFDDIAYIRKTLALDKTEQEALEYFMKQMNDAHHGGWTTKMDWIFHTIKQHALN
UniProt O00329, whole entry: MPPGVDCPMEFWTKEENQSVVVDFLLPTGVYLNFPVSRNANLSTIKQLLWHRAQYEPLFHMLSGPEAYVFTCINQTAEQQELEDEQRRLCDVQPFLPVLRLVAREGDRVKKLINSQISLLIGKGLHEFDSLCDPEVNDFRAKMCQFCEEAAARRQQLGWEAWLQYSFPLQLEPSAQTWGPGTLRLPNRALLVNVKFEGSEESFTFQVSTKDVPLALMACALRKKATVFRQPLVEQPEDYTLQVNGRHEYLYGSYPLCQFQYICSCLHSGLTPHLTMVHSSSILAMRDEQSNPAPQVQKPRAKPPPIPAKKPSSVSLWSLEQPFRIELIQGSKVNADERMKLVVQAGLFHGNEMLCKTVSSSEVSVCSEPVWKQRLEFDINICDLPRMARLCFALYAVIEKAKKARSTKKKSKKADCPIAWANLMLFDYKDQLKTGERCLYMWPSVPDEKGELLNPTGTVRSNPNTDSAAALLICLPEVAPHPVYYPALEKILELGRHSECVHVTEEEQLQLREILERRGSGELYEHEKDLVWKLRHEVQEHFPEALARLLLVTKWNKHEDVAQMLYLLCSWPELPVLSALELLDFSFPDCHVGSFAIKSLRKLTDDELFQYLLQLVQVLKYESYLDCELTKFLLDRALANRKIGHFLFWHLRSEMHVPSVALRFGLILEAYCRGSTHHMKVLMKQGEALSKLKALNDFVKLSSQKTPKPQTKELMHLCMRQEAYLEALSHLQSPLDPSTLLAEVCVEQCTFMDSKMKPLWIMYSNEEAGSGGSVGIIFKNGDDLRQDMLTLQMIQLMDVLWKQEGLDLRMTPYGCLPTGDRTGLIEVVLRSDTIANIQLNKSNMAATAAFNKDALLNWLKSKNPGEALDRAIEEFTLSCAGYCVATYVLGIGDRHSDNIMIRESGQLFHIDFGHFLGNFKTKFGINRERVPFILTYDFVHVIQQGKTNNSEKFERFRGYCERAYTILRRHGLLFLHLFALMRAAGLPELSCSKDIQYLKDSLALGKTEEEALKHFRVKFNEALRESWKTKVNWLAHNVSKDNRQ
UniProt Q9UBN7, whole entry: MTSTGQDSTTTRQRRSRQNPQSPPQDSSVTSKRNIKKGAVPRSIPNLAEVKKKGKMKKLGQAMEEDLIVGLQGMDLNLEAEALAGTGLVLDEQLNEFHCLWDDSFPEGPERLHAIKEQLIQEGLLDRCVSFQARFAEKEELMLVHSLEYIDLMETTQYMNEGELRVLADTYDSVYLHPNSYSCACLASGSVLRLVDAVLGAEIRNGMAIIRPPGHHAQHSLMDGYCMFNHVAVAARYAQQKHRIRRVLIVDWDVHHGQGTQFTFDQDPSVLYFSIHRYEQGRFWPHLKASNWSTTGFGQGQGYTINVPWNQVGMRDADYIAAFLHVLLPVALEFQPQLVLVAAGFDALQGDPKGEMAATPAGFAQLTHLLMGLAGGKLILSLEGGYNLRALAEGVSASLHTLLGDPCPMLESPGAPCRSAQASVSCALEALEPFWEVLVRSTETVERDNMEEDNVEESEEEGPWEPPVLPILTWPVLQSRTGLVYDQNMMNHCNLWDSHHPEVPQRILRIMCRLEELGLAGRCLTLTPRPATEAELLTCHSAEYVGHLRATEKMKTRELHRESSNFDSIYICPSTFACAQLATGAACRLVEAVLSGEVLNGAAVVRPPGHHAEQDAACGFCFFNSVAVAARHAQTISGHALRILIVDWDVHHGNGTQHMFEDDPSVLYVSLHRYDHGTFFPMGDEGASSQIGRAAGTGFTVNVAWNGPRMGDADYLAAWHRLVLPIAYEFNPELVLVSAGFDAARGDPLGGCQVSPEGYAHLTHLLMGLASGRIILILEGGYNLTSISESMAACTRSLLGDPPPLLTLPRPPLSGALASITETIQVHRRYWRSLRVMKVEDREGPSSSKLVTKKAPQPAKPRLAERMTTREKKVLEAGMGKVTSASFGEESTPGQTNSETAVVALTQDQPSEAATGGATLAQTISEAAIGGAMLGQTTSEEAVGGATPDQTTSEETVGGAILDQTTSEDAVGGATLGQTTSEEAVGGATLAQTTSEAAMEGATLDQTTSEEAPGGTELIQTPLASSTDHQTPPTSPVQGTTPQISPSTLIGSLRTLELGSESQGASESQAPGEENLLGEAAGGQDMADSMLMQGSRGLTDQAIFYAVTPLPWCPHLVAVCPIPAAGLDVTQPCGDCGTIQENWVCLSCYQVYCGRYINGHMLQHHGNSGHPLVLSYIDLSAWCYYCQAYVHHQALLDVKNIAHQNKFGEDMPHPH
UniProt P48736, whole entry: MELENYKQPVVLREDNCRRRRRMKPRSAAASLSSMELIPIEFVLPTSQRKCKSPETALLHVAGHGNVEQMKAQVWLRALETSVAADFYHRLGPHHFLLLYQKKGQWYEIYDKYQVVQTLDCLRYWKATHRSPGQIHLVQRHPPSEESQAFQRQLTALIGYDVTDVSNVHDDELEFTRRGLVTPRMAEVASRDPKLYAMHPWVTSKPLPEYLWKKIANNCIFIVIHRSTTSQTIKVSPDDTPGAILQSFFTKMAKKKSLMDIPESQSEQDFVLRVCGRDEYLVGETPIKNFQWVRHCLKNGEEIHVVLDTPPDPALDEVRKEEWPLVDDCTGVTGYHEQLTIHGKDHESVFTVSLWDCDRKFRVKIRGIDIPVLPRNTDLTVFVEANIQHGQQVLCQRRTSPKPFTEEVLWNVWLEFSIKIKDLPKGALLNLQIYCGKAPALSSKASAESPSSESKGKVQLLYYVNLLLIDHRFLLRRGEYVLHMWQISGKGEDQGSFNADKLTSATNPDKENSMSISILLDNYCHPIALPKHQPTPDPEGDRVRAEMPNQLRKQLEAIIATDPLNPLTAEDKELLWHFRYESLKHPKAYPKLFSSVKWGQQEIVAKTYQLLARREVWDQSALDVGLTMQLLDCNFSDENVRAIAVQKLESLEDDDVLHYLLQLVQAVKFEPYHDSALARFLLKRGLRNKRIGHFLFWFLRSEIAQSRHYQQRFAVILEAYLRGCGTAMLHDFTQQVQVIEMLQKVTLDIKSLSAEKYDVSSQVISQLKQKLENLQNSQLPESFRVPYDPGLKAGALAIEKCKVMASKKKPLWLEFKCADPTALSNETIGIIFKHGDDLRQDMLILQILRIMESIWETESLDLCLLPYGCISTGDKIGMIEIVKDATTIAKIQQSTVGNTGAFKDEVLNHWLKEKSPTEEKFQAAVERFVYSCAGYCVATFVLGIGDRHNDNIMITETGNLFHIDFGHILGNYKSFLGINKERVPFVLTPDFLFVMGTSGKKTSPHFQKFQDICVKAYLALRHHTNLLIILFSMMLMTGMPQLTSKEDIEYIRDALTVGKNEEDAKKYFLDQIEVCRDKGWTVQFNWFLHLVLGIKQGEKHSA
UniProt Q13547, whole entry: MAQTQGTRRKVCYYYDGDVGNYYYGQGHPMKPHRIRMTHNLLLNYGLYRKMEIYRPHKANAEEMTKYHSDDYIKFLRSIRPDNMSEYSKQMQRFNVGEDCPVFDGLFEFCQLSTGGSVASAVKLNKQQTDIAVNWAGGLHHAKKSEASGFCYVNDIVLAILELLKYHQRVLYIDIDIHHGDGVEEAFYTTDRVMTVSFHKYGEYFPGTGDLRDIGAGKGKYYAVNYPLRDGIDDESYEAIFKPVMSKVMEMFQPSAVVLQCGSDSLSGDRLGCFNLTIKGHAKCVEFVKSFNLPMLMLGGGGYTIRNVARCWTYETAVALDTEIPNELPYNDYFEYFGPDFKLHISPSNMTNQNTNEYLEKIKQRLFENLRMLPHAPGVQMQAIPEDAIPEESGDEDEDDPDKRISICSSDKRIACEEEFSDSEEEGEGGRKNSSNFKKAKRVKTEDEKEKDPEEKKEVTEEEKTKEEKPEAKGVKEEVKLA
UniProt Q92769, whole entry: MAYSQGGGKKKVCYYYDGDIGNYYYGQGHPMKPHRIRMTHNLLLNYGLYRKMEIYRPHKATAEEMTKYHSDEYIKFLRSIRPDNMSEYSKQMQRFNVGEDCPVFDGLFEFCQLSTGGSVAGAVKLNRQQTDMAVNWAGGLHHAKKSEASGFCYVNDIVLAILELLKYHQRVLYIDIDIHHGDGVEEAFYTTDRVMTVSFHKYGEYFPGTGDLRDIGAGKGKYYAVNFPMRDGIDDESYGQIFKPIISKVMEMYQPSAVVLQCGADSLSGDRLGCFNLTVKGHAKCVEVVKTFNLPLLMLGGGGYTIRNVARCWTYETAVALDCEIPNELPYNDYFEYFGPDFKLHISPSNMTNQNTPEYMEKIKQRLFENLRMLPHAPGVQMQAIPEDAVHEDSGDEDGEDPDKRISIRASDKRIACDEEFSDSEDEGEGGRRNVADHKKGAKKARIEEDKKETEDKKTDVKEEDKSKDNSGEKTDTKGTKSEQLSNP
UniProt O15379, whole entry: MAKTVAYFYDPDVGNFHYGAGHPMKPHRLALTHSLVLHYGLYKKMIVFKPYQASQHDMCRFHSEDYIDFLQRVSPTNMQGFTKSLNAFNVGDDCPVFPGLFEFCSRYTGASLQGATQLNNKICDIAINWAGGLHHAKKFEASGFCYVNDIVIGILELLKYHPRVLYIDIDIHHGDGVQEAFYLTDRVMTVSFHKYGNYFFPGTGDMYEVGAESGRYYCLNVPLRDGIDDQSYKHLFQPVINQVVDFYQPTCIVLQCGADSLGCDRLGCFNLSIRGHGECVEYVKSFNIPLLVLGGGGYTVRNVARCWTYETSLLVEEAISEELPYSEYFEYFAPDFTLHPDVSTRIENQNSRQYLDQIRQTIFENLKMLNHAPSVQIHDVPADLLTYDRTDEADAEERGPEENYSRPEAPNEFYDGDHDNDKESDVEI
UniProt Q969S8, whole entry: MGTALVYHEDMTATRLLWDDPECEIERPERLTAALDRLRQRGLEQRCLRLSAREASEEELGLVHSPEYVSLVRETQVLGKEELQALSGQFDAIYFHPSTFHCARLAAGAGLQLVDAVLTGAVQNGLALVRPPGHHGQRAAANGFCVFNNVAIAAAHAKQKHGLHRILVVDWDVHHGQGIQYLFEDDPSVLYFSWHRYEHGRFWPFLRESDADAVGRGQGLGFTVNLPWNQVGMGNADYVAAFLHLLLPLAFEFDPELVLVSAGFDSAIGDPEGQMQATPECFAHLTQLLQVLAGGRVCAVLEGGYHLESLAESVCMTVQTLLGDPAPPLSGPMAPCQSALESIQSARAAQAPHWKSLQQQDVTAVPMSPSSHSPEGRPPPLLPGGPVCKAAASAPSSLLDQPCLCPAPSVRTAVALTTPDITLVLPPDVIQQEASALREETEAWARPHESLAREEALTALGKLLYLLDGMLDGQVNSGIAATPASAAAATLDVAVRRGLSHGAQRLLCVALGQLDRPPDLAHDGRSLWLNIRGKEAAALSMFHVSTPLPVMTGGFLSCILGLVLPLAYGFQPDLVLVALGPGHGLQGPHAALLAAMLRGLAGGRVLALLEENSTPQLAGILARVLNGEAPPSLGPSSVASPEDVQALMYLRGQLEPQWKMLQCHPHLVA
UniProt Q9Y618, 395-489 partner limits assumed: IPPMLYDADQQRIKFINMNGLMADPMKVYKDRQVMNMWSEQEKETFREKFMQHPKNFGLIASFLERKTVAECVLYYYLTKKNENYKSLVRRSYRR

HDAC2 = HDAC2 (Homo sapiens, UniProt Q92769); experiment: HDAC2 enzyme activity inhibition IC50 evaluation experiment; settings: read-out: HDAC2 IC50; HDAC2 4 nM, acetylated peptide 10 μM, trypsin, fluorescence
Experimental: as §1, §2

HDAC3 = HDAC3 (Homo sapiens, UniProt O15379); experiment: HDAC3 enzyme activity inhibition IC50 evaluation experiment; settings: read-out: HDAC3 IC50; HDAC3 7 nM, acetylated peptide 5 μM, trypsin, fluorescence
Experimental: as §1, §2

HDAC10 = HDAC10 (Homo sapiens, UniProt Q969S8); experiment: HDAC10 enzyme activity inhibition IC50 evaluation experiment; settings: read-out: HDAC10 IC50; HDAC10 10 nM, acetylated peptide 4 μM, 240 min, fluorescence
Experimental: Effect Example 3 HDAC8, HDAC10 enzyme activity inhibition IC50 evaluation experiment
Prepare buffer solution (HDAC8: 50 mM Tris 8.0, 2.7 mM KCl, 137 mM NaCl, 1 mM MgCl2, 1 mg/mL BSA; HDAC10: 50 mM Tris 7.5, 0.01% Tween-20, 50 mM NaCl, 0.05 mg/mL BSA) according to the kit instructions, prepared Enzyme solution, substrate solution (acetylated peptide) by using buffer. The test compound samples were dissolved in DMSO and was added to the screening system at a certain starting concentration such as 10 μM, 3-fold dilution, while setting up the DMSO control and the no-enzyme control. The enzyme reaction system includes: buffer, enzyme [final concentration: HDAC8=10 nM, HDAC10=10 nM], substrate (acetylated peptide) [final concentration: Peptide(HDAC8)=20 μM, Peptide(HDAC10)=4 μM], etc. The enzymes and compounds were reacted at room temperature for 15 minutes. After adding the substrate peptide the reaction system was reacted at room temperature for 240 min. Trypsin solution was added [final concentration: Trypsin=50p M] and incubation continued for 120 min. The fluorescence signal data (excitation wavelength 355 nM/emission wavelength 460 nm) was read with Envision instrument. Calculate the inhibition rate at this concentration based on the relative fluorescence units (RFU). The IC50 value was obtained by fitting a curve using the formula Y=Bottom+(Top-Bottom)/(1+(IC50/X)^HillSlope).

| IC50 (PI3Kα) [µM] | IC50 (PI3Kδ) [µM] | IC50 (HDAC6) [µM] | IC50 (PI3Kβ) [µM] | IC50 (PI3Kγ) [µM] | IC50 (HDAC1) [µM] | IC50 (HDAC2) [µM] | IC50 (HDAC3) [µM] | IC50 (HDAC10) [µM] | Compound |
| --- | --- | --- | --- | --- | --- | --- | --- | --- | --- |
| 1 to 10 | < 0.01 | > 10 |  |  |  |  |  |  | COc1ncc(-c2nc(N3CCOCC3)nc3c(CN4CCC(OCCOCC(=O)NO)CC4)cc(F)cc23)cc1NS(C)(=O)=O |
| 1 to 10 | < 0.01 | 0.01 to 0.1 | 0.1 to 1 | > 10 | 0.1 to 1 | 0.1 to 1 | 0.1 to 1 | 1 to 10 | COc1ncc(-c2nc(N3CCOCC3)nc3c(CN4CCC(CCCC(=O)NO)CC4)cc(F)cc23)cc1NS(C)(=O)=O |
|  | 0.01 to 0.1 | 1 to 10 |  |  |  |  |  |  | COc1ncc(-c2nc(N3CCOCC3)nc3c(CN4CCC(CC(=O)NO)CC4)cc(F)cc23)cc1NS(C)(=O)=O |

| Compound | IC50 (PI3Kα) [µM] | IC50 (PI3Kδ) [µM] | IC50 (HDAC6) [µM] | IC50 (PI3Kβ) [µM] | IC50 (PI3Kγ) [µM] | IC50 (HDAC1) [µM] | IC50 (HDAC2) [µM] | IC50 (HDAC3) [µM] | IC50 (HDAC10) [µM] |
| --- | --- | --- | --- | --- | --- | --- | --- | --- | --- |
| COc1ncc(-c2nc(N3CCOCC3)nc3c(CN4CCC(CCC(=O)NO)CC4)cc(F)cc23)cc1NS(C)(=O)=O |  | < 0.01 | 0.1 to 1 |  |  |  |  |  |  |

Reference: US20240217947A1, “Morpholinylquinazoline Compound, Pharmaceutical compositions thereof and Use Thereof” (SHANGHAI YINGLI PHARMACEUTICAL CO., LTD, priority 2022, published 2024)
